We go through one compound from ChEMBL document CHEMBL1121753 (J Med Chem, 1981).

For the experiment, the system named is ADJ/PC6. Kind of experiment: Compound was tested for inhibition against ADJ/PC6 mouse plasma cell tumor at the dose of 320 mg/Kg.

In turn, `[O-][P@+]1(N(CCCl)CCCl)NC[C@H](F)CO1` returned an Inhibition of 88.3%.

Broadly, the Inhibition is the drop in the measured response relative to a control, in per cent.
